Assay results taken from patent US10010535B2, “Desferrithiocin analogs and uses thereof” (University of Florida Research Foundation, Incorporated, priority 2013, dated 2018).
Like-named read-outs stand apart in the source and are kept apart here.

What was measured:
[1] = test system: iron excretion; assay: Iron-clearing efficiency in iron-overloaded primates (fecal and urine samples); type: in vivo, Cebus apella monkeys; conditions: po 75 μmol/kg, monosodium salt
Description: At least 20 half-lives, 60 days (Wood et al., “The Metabolism of Iron-Dextran Given As a Total-Dose Infusion to Iron Deficient Jamaican Subjects.” Br. J. Hamaetol. 1968, 14, 119-129), elapsed before any of the animals were used in experiments evaluating iron-chelating agents.
Briefly, the collections began 4 days prior to the administration of the test compound and continued for an additional 5 days after the compound was given. Iron concentrations were determined by flame absorption spectroscopy as presented in other publications (Bergeron et al., “A Comparative Evaluation of Iron Clearance Models.” Ann. N.Y. Acad. Sci. 1990, 612, 378-393; Bergeron et al., “Synthesis and Biological Evaluation of Naphthyldesferrithiocin Iron Chelators.” J. Med. Chem. 1996, 39, 1575-1581).
In the text below, the term “iron-clearing efficiency” (ICE) is used as a measure of the amount of iron excretion induced by a chelator. The ICE, expressed as a percent, is calculated as (compound-induced iron excretion/theoretical iron excretion)×100. To illustrate, the theoretical iron excretion after administration of one millimole of desferrioxamine B mesylate (DFO) (FIG. 3), a hexadentate chelator that forms a 1:1 complex with Fe(III), is one milli-g-atom of iron. […]

[2] = test system: iron excretion; conditions: po 150 μmol/kg, cited from earlier work
[3] = test system: iron excretion; conditions: po 300 μmol/kg, monosodium salt, cited from earlier work

SMILES	Primate Iron-Clearing Efficiency (%) [1] [%]	relative percentages of the iron excreted in the feces and urine ([1]; primates, feces/urine)	Primate Iron-Clearing Efficiency (%) [2] [%]	relative percentages of the iron excreted in the feces and urine ([2]; primates, feces/urine)	Rodent Iron-Clearing Efficiency (%) [3] [%]	relative percentages of the iron excreted in the bile and urine ([3]; rodents, bile/urine)
C[C@]1(C(=O)O)CSC(c2ncc(O)cc2O)=N1 [I-1, (S)-4,5-Dihydro-2-(3,5-dihydroxy-2-pyridinyl)-4-methyl-4-thiazolecarboxylic Acid]	10.0±2.9	58/42				
C[C@]1(C(=O)O)CSC(c2ccc(O)cc2O)=N1 [compound 3]			16.8±7.2	88/12	1.1±0.8	100/0
